Data reported in PubChem BioAssay (NCI).
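Briefly, cells in 96-well plates were exposed to five compound concentrations for 48 h, and endpoints were estimated by linear interpolation. GI50 marks 50% less growth. TGI is the concentration that stops growth completely.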

Assays:
Experiment in all cases: inhibition of tumour cell growth, NCI panel, 48 h
[1] = tested on: K-562 leukemia
[2] = tested on: OVCAR-8 ovarian
[3] = tested on: OVCAR-5 ovarian
[4] = tested on: OVCAR-4 ovarian
[5] = tested on: LOX IMVI melanoma
[6] = tested on: SK-MEL-5 melanoma
[7] = tested on: UACC-62 melanoma
[8] = tested on: UO-31 renal
[9] = tested on: HT29 colon
[10] = tested on: OVCAR-3 ovarian
[11] = tested on: KM12 colon
[12] = tested on: ACHN renal
[13] = tested on: UACC-257 melanoma
[14] = tested on: SF-295 CNS
[15] = tested on: HOP-62 NSCLC
[16] = tested on: A549 NSCLC
[17] = tested on: NCI-H522 lung
[18] = tested on: HCT-15 colon
[19] = tested on: MDA-N
[20] = tested on: COLO 205 colon
[21] = tested on: SK-MEL-28 melanoma
[22] = tested on: NCI-H226 lung
[23] = tested on: MDA-MB-435
[24] = tested on: NCI-H23 lung
[25] = tested on: DU-145 prostate
[26] = tested on: NCI-H460 lung
[27] = tested on: CAKI-1 renal
[28] = tested on: SF-268 CNS
[29] = tested on: EKVX NSCLC
[30] = tested on: SN12C renal
[31] = tested on: SK-MEL-2 melanoma
[32] = tested on: IGROV1 ovarian
[33] = tested on: SF-539 CNS
[34] = tested on: MDA-MB-231 breast
[35] = tested on: SNB-75 CNS
[36] = tested on: A498 renal
[37] = tested on: NCI-H322M lung
[38] = tested on: 786-0 renal
[39] = tested on: PC-3 prostate
[40] = tested on: U251 CNS
[41] = tested on: SK-OV-3 ovarian
[42] = tested on: NCI/ADR-RES ovarian
[43] = tested on: RPMI-8226 leukemia
[44] = tested on: MCF7 breast
[45] = tested on: RXF 393 renal
[46] = tested on: BT-549 breast
[47] = tested on: T-47D breast
[48] = tested on: HS 578T breast
[49] = tested on: MALME-3M melanoma
[50] = tested on: HCT-116 colon
[51] = tested on: SW-620 colon
[52] = tested on: TK-10 renal
[53] = tested on: M14 melanoma
[54] = tested on: HOP-92 NSCLC
[55] = tested on: SNB-19 CNS

**Q.** Which results are given for `C(Cc1nn[nH]n1)c1nn[nH]n1`?
**A.** GI50 [1]: > 100 µM; TGI [1]: > 100 µM; GI50 [2]: > 100 µM; TGI [2]: > 100 µM; GI50 [3]: > 100 µM; TGI [3]: > 100 µM; GI50 [4]: > 100 µM; TGI [4]: > 100 µM; GI50 [5]: > 100 µM; TGI [5]: > 100 µM; GI50 [6]: > 100 µM; TGI [6]: > 100 µM; GI50 [7]: > 100 µM; TGI [7]: > 100 µM; GI50 [8]: > 100 µM; TGI [8]: > 100 µM; GI50 [9]: > 100 µM; TGI [9]: > 100 µM; GI50 [10]: > 100 µM; TGI [10]: > 100 µM; GI50 [11]: > 100 µM; TGI [11]: > 100 µM; GI50 [12]: > 100 µM; TGI [12]: > 100 µM; GI50 [13]: > 100 µM; TGI [13]: > 100 µM; GI50 [14]: > 100 µM; TGI [14]: > 100 µM; GI50 [15]: > 100 µM; TGI [15]: > 100 µM; GI50 [16]: > 100 µM; TGI [16]: > 100 µM; GI50 [17]: > 100 µM; TGI [17]: > 100 µM; GI50 [18]: > 100 µM; TGI [18]: > 100 µM; GI50 [19]: > 100 µM; TGI [19]: > 100 µM; GI50 [20]: > 100 µM; TGI [20]: > 100 µM; GI50 [21]: > 100 µM; TGI [21]: > 100 µM; GI50 [22]: > 100 µM; TGI [22]: > 100 µM; GI50 [23]: > 100 µM; TGI [23]: > 100 µM; GI50 [24]: > 100 µM; TGI [24]: > 100 µM; GI50 [25]: > 100 µM; TGI [25]: > 100 µM; GI50 [26]: > 100 µM; TGI [26]: > 100 µM; GI50 [27]: > 100 µM; TGI [27]: > 100 µM; GI50 [28]: > 100 µM; TGI [28]: > 100 µM; GI50 [29]: > 100 µM; TGI [29]: > 100 µM; GI50 [30]: > 100 µM; TGI [30]: > 100 µM; GI50 [31]: > 100 µM; TGI [31]: > 100 µM; GI50 [32]: > 100 µM; TGI [32]: > 100 µM; GI50 [33]: > 100 µM; TGI [33]: > 100 µM; GI50 [34]: > 100 µM; TGI [34]: > 100 µM; GI50 [35]: > 100 µM; TGI [35]: > 100 µM; GI50 [36]: > 100 µM; TGI [36]: > 100 µM; GI50 [37]: > 100 µM; TGI [37]: > 100 µM; GI50 [38]: > 100 µM; TGI [38]: > 100 µM; GI50 [39]: > 100 µM; TGI [39]: > 100 µM; GI50 [40]: > 100 µM; TGI [40]: > 100 µM; GI50 [41]: > 100 µM; TGI [41]: > 100 µM; GI50 [42]: > 100 µM; TGI [42]: > 100 µM; GI50 [43]: > 100 µM; TGI [43]: > 100 µM; GI50 [44]: > 100 µM; TGI [44]: > 100 µM; GI50 [45]: > 100 µM; TGI [45]: > 100 µM; GI50 [46]: > 100 µM; TGI [46]: > 100 µM; GI50 [47]: > 100 µM; TGI [47]: > 100 µM; GI50 [48]: > 100 µM; TGI [48]: > 100 µM; GI50 [49]: > 100 µM; TGI [49]: > 100 µM; GI50 [50]: > 100 µM; TGI [50]: > 100 µM; GI50 [51]: > 100 µM; TGI [51]: > 100 µM; GI50 [52]: > 100 µM; TGI [52]: > 100 µM; GI50 [53]: > 100 µM; TGI [53]: > 100 µM; GI50 [54]: > 100 µM; TGI [54]: > 100 µM; GI50 [55]: > 100 µM; TGI [55]: > 100 µM
